Results on 4 sequences are retold here after patent US8030452B2, “IFBM'S to promote the specific attachment of target analytes to the surface of orthopedic implants” (priority 2004, dated 2011).

For this experiment, the target named is T1, BMP-2 (Homo sapiens, UniProt P12643).
T1 construct: purchased Medtronic
T1 sequence (P12643 283-396): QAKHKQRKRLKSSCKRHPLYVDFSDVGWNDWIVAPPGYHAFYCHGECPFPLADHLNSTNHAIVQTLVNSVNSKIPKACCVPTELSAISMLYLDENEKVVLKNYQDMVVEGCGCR
Nature of the experiment: Solution-phase BMP-2 binding assay of biotinylated peptides (streptavidin capture, anti-BMP antibody). As to conditions: 37° C., read-out: Estimated Affinity for BMP-2. How it is done: To confirm these BMP binding results, the peptides were also tested in an alternate assay format in which the peptide and BMP2 were allowed to bind in solution and then assayed. Briefly, the peptides were synthesized with a biotin group attached to the ε amino group of a lysine residue at the C-terminus of the peptide. The biotinylated peptides (0-12 pmoles) were mixed with BMP-2 (0-25 pmoles) in solution and allowed to incubate at 37° C. for 30 minutes in a polypropylene plate. The solutions were transferred to a streptavidin-coated plate and incubated for 1 hour at 37° C. to capture the biotinylated peptides. Plates were washed in TBS-Tween™ 20 and then incubated with an anti-BMP antibody (1:1000 dilution; R&D systems) for 1 hour at RT. After washing, an alkaline phosphatase-labeled secondary antibody was then added to the plate and incubated at RT for 30 minutes. The plates were washed with TBS-Tween™ 20 and the antibody binding was detected using the chromogenic AP substrate pNPP.
As to SSFEPLRFPLKGVPVSR [compound 2009], the Kd was 0.01 µM.

Take SSDWGVVASAWDAFEALDASR [compound 2011]: the Kd is 0.055 µM.

As for SSSVDLYFPLKGDVVSR [compound 2012], the Kd was 0.009 µM.

For the sequence SRGGEAAAGAWVSFSALESSR [compound 2007], the Kd is 0.079 µM.
